# Measured values: PubChem BioAssay AID1242 (PCMD, 2008)
# The entries are a selection whose mix differs from that of the whole data set. Some results for these compounds are left out of this collection, so the calls shown say nothing about other tests. Calls of active or inactive are those of the source.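 How the source made its calls: active means inhibition above 30.3% in the primary screen of four-compound pools, then above 30% when the compound was retested; inconclusive means passed the primary limit but could not be retested; inactive means the rest.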
# Experiment: Candida albicans biofilm persister killing – 4-compound mixtures, primary screen (AID 1242);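 further: compounds exposed to preformed 24 h biofilms for 48 h; 0% = untreated biofilm control and 100% = clotrimazole plus chlorhexidine kill blank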
# Details: C. albicans biofilm persisters + clotrimazole, fluorescence viability; primary screen in compound mixtures of four per well; at 7.6 µM; stronger effect = higher value
# In short: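 Test system: C. albicans CAF4-2 wild-type biofilms; buffer or medium: RPMI/MOPS medium, pH 7.0; schedule: 24 h biofilm formation, then 48 h compound exposure, 37 °C; detection: Alamar Blue fluorescence; measure: percent inhibition of biofilm viability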
row,Structure (SMILES),inhibition
1,COc1cccc(C(=O)NCC2(N3CCCCC3)CCCCC2)c1,inactive: 10.2%
2,COc1ccc(Br)c(C(=O)NCC2(N3CCCCC3)CCCCC2)c1,inactive: 10.1%
3,O=C(NCC1(N2CCCCC2)CCCCC1)c1cc([N+](=O)[O-])ccc1Cl,inactive: 6.95%
4,CCN(CC)CC(C)C(C)OC(=O)C(O)(c1ccccc1)c1ccccc1 (stereo not drawn),inactive: 19.6%
5,Cc1ccccc1C(=O)NCC1(N2CCCCC2)CCCCC1,inactive: 13.5%
6,CN(C)C1CCCC1OC(=O)C(O)(c1ccccc1)c1ccccc1 (stereo not drawn),inactive: 9.03%
7,C=CCN1CCN(CCOC(=O)C(O)(c2ccccc2)c2ccccc2)CC1,inactive: 18.9%
8,CCN1CCCC(OC(=O)C2(O)c3ccccc3C=Cc3ccccc32)C1 (stereo not drawn),inactive: -10.7%
